# Results from US9452980B2, “Substituted benzamides” (Hoffmann-La Roche Inc., priority 2009, dated 2016).
# Protein sequences, listed by entry. Tags and fused reporters are not part of them.
# UniProt Q923Y9, whole entry: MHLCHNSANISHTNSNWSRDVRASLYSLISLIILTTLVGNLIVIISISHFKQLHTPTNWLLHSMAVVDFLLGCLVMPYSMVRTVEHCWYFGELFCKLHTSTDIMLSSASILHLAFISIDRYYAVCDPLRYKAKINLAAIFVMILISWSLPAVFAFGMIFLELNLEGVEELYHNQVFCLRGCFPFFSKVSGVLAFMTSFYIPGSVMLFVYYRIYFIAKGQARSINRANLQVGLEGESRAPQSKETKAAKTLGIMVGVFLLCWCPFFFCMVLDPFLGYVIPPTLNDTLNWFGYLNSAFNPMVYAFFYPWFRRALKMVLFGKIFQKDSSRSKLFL
# UniProt Q923Y8, whole entry: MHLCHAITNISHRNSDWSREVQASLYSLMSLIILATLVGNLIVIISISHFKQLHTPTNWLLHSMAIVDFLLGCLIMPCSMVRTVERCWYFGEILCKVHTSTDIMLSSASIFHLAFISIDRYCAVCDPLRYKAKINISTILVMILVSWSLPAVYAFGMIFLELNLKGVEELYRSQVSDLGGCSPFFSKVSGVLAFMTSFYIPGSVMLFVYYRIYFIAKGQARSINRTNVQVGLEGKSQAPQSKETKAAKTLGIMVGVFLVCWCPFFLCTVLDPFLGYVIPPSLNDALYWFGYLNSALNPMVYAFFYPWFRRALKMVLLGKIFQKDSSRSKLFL
# Structures can show the parent of a compound that is named as a salt.
# Tests used:
# [1] = target: rat TAAR1 (Rattus norvegicus (Rat), UniProt Q923Y9); test: Radioligand binding assay on rat TAAR1; conditions: rat TAAR1, HEK-293 membranes, second value of cell mouse/rat
# Experimental: (§1) For the construction of expression plasmids the coding sequences of human, rat and mouse TAAR1 were amplified from genomic DNA essentially as described by Lindemann et al.. The Expand High Fidelity PCR System (Roche Diagnostics) was used with 1.5 mM Mg^2+ and purified PCR products were cloned into pCR2.1-TOPO cloning vector (Invitrogen) following the instructions of the manufacturer. PCR products were subcloned into the pIRESneo2 vector (BD Clontech, Palo Alto, Calif.), and expression vectors were sequence verified before introduction in cell lines.
# (§2) HEK293 cells (ATCC #CRL-1573) were cultured essentially as described by Lindemann et al. (2005). For the generation of stably transfected cell lines HEK293 cells were transfected with the pIRESneo2 expression plasmids containing the TAAR coding sequences (described above) with Lipofectamine 2000 (Invitrogen) according to the instructions of the manufacturer, and 24 hrs post transfection the culture medium was supplemented with 1 mg/ml G418 (Sigma, Buchs, Switzerland). After a culture period of about 10 d clones were isolated, expanded and tested for responsiveness to trace amines (all compounds purchased from Sigma) with the cAMP Biotrak Enzyme immunoassay (EIA) System (Amersham) following the non-acetylation EIA procedure provided by the manufacturer.
# Radioligand Binding Assay on Rat TAAR1
# (§3) Membrane Preparation and Radioligand Binding.
# HEK-293 cells stably expressing rat TAAR1 were maintained at 37° C. and 5% CO2 in DMEM high glucose medium, containing fetal calf serum (10%, heat inactivated for 30 min at 56° C.), penicillin/streptomycin (1%), and 375 μg/ml geneticin (Gibco). Cells were released from culture flasks using trypsin/EDTA, harvested, washed twice with ice-cold PBS (without Ca^2+ and Mg^2+), pelleted at 1,000 rpm for 5 min at 4° C., frozen and stored at −80° C. Frozen pellets were suspended in 20 ml HEPES-NaOH (20 mM, pH 7.4) containing 10 mM EDTA and homogenized with a Polytron (PT 6000, Kinematica) at 14,000 rpm for 20 s. The homogenate was centrifuged at 48,000×g for 30 min at 4° C. Subsequently, the supernatant was removed and discarded, and the pellet resuspended in 20 ml HEPES-NaOH (20 mM, pH 7.4) containing 0.1 mM EDTA using the Polytron (20 s at 14,000 rpm). This procedure was repeated and the final pellet resuspended in HEPES-NaOH containing 0.1 mM EDTA and homogenized using the Polytron. Typically, aliquots of 2 ml membrane portions were stored at −80° C. With each new membrane batch the dissociation constant (Kd) was determined via a saturation curve. […] Nonspecific binding was defined as the amount of ^3[H]—(S)-4-[(ethyl-phenyl-amino)-methyl]-4,5-dihydro-oxazol-2-ylamine bound in the presence of 10 μM unlabeled ligand. All compounds were tested at a broad range of concentrations (10 pM to 10 μM) in duplicates. […] The 96 deep well plates were incubated for 1 hr at 4° C. Incubations were terminated by rapid filtration through Unifilter-96 plates (Packard Instrument Company) and glass filters GF/C (Perkin Elmer) presoaked for 1 hr in polyethylenimine (0.3%) and washed 3 times with 1 ml of cold binding buffer. After addition of 45 μl of Microscint 40 (PerkinElmer) the Unifilter-96 plate was sealed and after 1 hr the ratioactivity counted using a TopCount Microplate Scintillation Counter (Packard Instrument Company).
# [2] = target: mouse TAAR1 (Mus musculus (Mouse), UniProt Q923Y8); test: Radioligand binding assay on mouse TAAR1; conditions: mouse TAAR1, HEK-293 membranes, first value of cell mouse/rat
# Experimental: as §1, §2
# Radioligand Binding Assay on Mouse TAAR1
# as §3
# HEK-293 cells stably expressing mouse TAAR1 were maintained at 37° C. and 5% CO2 in DMEM high glucose medium, containing fetal calf serum (10%, heat inactivated for 30 min at 56° C.), penicillin/streptomycin (1%), and 375 μg/ml geneticin (Gibco). Cells were released from culture flasks using trypsin/EDTA, harvested, washed twice with ice-cold PBS (without Ca^2+ and Mg^2+), pelleted at 1,000 rpm for 5 min at 4° C., frozen and stored at −80° C. Frozen pellets were suspended in 20 ml HEPES-NaOH (20 mM, pH 7.4) containing 10 mM EDTA and homogenized with a Polytron (PT 6000, Kinematica) at 14,000 rpm for 20 s. The homogenate was centrifuged at 48,000×g for 30 min at 4° C. Subsequently, the supernatant was removed and discarded, and the pellet resuspended in 20 ml HEPES-NaOH (20 mM, pH 7.4) containing 0.1 mM EDTA using the Polytron (20 s at 14,000 rpm). This procedure was repeated and the final pellet resuspended in HEPES-NaOH containing 0.1 mM EDTA and homogenized using the Polytron. Typically, aliquots of 2 ml membrane portions were stored at −80° C. With each new membrane batch the dissociation constant (Kd) was determined via a saturation curve. […] After addition of 45 μl of Microscint 40 (PerkinElmer) the Unifilter-96 plate was sealed and after 1 hr the ratioactivity counted using a TopCount Microplate Scintillation Counter (Packard Instrument Company).
SMILES,Ki [1],Ki [2]
"O=C(Nc1ccc(COC2CCNC2)cc1)c1ccc(Cl)cc1 (racemic) [Example 145, (RS)-4-Chloro-N-[4-(pyrrolidin-3-yloxymethyl)-phenyl]-benzamide hydrochloride]",0.0013 µM,–
"O=C(Nc1ccc(C2CCNC2)cc1)N1CCCCC1 (racemic) [Example 28, (RS)-Piperidine-1-carboxylic acid (4-pyrrolidin-3-yl-phenyl)-amide]",0.473 µM,–
"CC(C(=O)Nc1ccc(C2CCCNC2)cc1)c1cccc(C(F)(F)F)c1 (racemic) [Example 104, (RS)—N—((RS)-4-Piperidin-3-yl-phenyl)-2-(3-trifluoromethyl-phenyl)-propionamide]",0.0276 µM,0.0454 µM
"C[C@H](C(=O)Nc1ccc(C2CCNC2)cc1)c1ccccc1 (mixture of isomers) [Example 30, (S)-2-Phenyl-N—((RS)-4-pyrrolidin-3-yl-phenyl)-propionamide]",0.0722 µM,–
"O=C(Nc1ccc(C2CCNC2)cc1)OCCc1ccc(OC(F)(F)F)cc1 (racemic) [Example 125, (RS)-(4-Pyrrolidin-3-yl-phenyl)-carbamic acid 2-(4-trifluoromethoxy-phenyl)-ethyl ester]",–,0.0003 µM
"O=C(Nc1ccc(C2CNCCO2)cc1)c1ccc(Cl)cn1 (racemic) [Example 148, (RS)-5-Chloro-pyridine-2-carboxylic acid (4-morpholin-2-yl-phenyl)-amide hydrochloride]",0.0049 µM,–
"O=C(Nc1ccc(C2CCNC2)cc1)OC1Cc2ccccc2C1 (racemic) [Example 129, (RS)-(4-Pyrrolidin-3-yl-phenyl)-carbamic acid indan-2-yl ester]",0.0062 µM,0.004 µM
"C[C@@H](C(=O)Nc1ccc(C2CCNC2)cc1)c1ccccc1 (mixture of isomers) [Example 29, (R)-2-Phenyl-N—((RS)-4-pyrrolidin-3-yl-phenyl)-propionamide]",0.0501 µM,–
"O=C(Nc1ccc(C2CCNC2)cc1)OCCc1ccc(F)cc1 (racemic) [Example 46, (RS)-(4-Pyrrolidin-3-yl-phenyl)-carbamic acid 2-(4-fluoro-phenyl)-ethyl ester]",0.0011 µM,0.0011 µM
"COC(C(=O)Nc1ccc(C2CCNC2)cc1)c1ccc(Br)cc1 (racemic) [Example 50, (RS)-2-(4-Bromo-phenyl)-2-methoxy-N—((RS)-4-pyrrolidin-3-yl-phenyl)-acetamide]",0.122 µM,–
"CN1CCOC(c2ccc(NC(=O)c3ccc(Cl)cc3)cc2)C1 (racemic) [Example 80, (RS)-4-Chloro-N-[4-(4-methyl-morpholin-2-yl)-phenyl]-benzamide]",0.742 µM,–
"CCN1CCC(c2ccc(NC(=O)c3ccc(Cl)cc3)cc2)C1 (racemic) [Example 33, (RS)-4-Chloro-N-[4-(1-ethyl-pyrrolidin-3-yl)-phenyl]-benzamide]",0.0545 µM,–
"COc1cccc(C(C)C(=O)Nc2ccc(C3CCNC3)cc2)c1 (racemic) [Example 67, (RS)-2-(3-Methoxy-phenyl)-N—((RS)-4-pyrrolidin-3-yl-phenyl)-propionamide]",0.0555 µM,–
"CO[C@H](C(=O)Nc1ccc(C2CCNC2)cc1)c1ccccc1 (mixture of isomers) [Example 48, (S)-2-Methoxy-2-phenyl-N—((RS)-4-pyrrolidin-3-yl-phenyl)-acetamide]",0.613 µM,–
"CC(C(=O)Nc1ccc(C2CCNC2)cc1)c1ccccc1 (racemic) [Example 25, (RS)-2-Phenyl-N—((RS)-4-pyrrolidin-3-yl-phenyl)-propionamide]",0.0758 µM,–
"CO[C@@H](C(=O)Nc1ccc(C2CCNC2)cc1)c1ccccc1 (mixture of isomers) [Example 49, (R)-2-Methoxy-2-phenyl-N—((RS)-4-pyrrolidin-3-yl-phenyl)-acetamide]",1.68 µM,–
